{"source": "patent US20190144917", "test_system": "C1-NPs: fluorescein-conjugated MMP substrate peptide C1 (FAM-sk-PLGLEEA-GC) coupled to iron oxide nanoparticles"}
{"substance": "recombinant MMP13", "values": [{"measurement": "catalytic efficiency (Michaelis-Menten fit)", "result": "catalytic efficiencies>10^3 M^-1 s^-1 and 10^4 M^-1 s^-1, respectively"}]}
